Data from ChEMBL document CHEMBL1124523, “Binary antidotes for organophosphate poisoning: aprophen analogues that are both antimuscarinics and carbamates” (1989).
Calls of active or inactive are those of the source. The calls are words filed in the database; no cut-off is given here.

The chains behind the UniProt entries cited, without tags or fusion partners.
UniProt P06276, whole entry, looked up: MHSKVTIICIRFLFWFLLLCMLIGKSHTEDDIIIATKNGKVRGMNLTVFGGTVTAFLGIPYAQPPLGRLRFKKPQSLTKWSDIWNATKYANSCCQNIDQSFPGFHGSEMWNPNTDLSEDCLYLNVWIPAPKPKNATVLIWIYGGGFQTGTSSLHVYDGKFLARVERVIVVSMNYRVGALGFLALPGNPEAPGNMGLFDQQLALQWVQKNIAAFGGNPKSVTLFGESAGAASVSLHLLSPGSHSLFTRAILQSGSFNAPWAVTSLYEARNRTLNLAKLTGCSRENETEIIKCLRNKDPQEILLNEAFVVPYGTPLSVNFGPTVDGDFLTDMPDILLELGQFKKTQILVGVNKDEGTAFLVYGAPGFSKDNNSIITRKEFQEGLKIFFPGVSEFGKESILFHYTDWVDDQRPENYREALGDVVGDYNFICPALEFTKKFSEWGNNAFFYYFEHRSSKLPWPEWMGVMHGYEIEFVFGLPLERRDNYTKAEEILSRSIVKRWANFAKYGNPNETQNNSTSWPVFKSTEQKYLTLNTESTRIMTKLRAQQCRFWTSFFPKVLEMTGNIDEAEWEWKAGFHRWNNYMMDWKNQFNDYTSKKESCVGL
UniProt P08172, whole entry, looked up: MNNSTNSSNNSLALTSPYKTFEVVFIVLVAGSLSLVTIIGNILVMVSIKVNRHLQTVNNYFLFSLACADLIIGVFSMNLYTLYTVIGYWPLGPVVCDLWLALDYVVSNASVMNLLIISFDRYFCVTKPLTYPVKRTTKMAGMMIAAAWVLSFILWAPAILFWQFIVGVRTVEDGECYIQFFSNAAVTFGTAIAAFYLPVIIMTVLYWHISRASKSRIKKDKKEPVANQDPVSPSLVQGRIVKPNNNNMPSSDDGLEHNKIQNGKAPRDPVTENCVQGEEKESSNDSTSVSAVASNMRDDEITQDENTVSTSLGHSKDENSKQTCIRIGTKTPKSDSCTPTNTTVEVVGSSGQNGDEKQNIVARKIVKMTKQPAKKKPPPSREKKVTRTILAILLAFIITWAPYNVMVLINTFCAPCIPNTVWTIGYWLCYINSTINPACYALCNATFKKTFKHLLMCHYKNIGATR

What was measured:
[1] = molecular target: Cholinesterase (Homo sapiens) (UniProt P06276); assay: Anticholinesterase activity and the bimolecular rate constant was determined from the inhibition of butyrylcholinesterase purified from human serum
[2] = molecular target: Muscarinic acetylcholine receptor M2 (Homo sapiens) (UniProt P08172); assay: Inhibition of carbachol-induced release of alpha-amylase from pancreatic acinar cells from that of rat ileum contained the Muscarinic acetylcholine receptor M2 subtypes; conditions: Cavia porcellus
[3] = molecular target: Muscarinic acetylcholine receptor M2 (Homo sapiens) (UniProt P08172); assay: Inhibition of carbachol-induced release of alpha-amylase from pancreatic acini cells from that of rat ileum contained the Muscarinic acetylcholine receptor M2 subtypes; conditions: Cavia porcellus
[4] = molecular target: Muscarinic acetylcholine receptor M2 (Homo sapiens) (UniProt P08172); assay: Inhibition of carbachol-induced release of alpha-amylase from pancreatic acinar cells from that of rat ileum contained the Muscarinic acetylcholine receptor M2 subtypes; NA is not active; conditions: Cavia porcellus
[5] = molecular target: Muscarinic acetylcholine receptor M2 (Homo sapiens) (UniProt P08172); assay: Antimuscarinic activity on the acetylcholine-induced inhibition of contraction of guinea pig ileum which has M2 muscarinic receptor subtype; NA is not active; conditions: Cavia porcellus

| SMILES | k3 [1] [M⁻¹ s⁻¹] | Kb [2] [nM] | further results |
| --- | --- | --- | --- |
| CCN(CC)CCOC(=O)C(C)(c1ccc(O)cc1)c1ccc(OC(=O)N(C)C)cc1 (stereo not drawn) | 5000 | 3200 |  |
| CCN(CC)CCOC(=O)C(C)(c1ccccc1)c1ccc(OC(=O)NC)cc1 (stereo not drawn) | 14200 |  | Kb [3]: 50 nM |
| CCN(CC)CCOC(=O)C(C)(c1ccccc1)c1ccc(OC(=O)N(C)C)cc1 (stereo not drawn) | 11000 | 83 |  |
| CCN(CC)CCOC(=O)C(C)(c1ccc(OC(=O)N(C)C)cc1)c1ccc(OC(=O)N(C)C)cc1 | 233 |  | KB [4]: inactive; pA2 [5]: inactive |
| CCN(CC)CCOC(=O)C(C)(c1ccc(O)cc1)c1ccc(O)cc1 |  | 2000 |  |
| CCN(CC)CCOC(=O)C(C)(c1ccccc1)c1ccccc1 |  | 3.1 |  |
| CN(C)C(=O)Oc1ccc[n+](C)c1 | 567 |  |  |
| CCN(CC)CCOC(=O)C(C)(c1ccccc1)c1ccc(O)cc1 (stereo not drawn) |  | 70 |  |
